# Experimental data taken from BindingDB's records for doi:10.1124/jpet.104.073668 (Temple University, 2005).
# Protein sequences, listed by entry. Tags and fused reporters are not part of them.
# UniProt P33535, whole entry: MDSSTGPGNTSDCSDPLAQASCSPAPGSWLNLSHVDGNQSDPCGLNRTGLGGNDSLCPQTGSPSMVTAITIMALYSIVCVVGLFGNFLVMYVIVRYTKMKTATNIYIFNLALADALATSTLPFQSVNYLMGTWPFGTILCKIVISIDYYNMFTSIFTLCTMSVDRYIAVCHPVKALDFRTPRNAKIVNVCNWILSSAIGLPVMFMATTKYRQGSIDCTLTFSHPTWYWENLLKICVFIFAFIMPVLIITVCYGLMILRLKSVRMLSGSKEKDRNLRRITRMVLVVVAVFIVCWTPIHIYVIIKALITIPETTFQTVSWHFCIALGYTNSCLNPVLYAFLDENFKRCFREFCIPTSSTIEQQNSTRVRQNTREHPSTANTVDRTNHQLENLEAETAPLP
# pKi: −log10 of the molar value.
# Target: Mu-type opioid receptor (Rattus norvegicus, UniProt P33535)
structure (smiles),measurement,value
C[C@@H](NC(=O)[C@@H](N)Cc1ccc(O)cc1)C(=O)NCC(=O)N(C)[C@@H](Cc1ccccc1)C(=O)NCCO [CAS_100929-53-1],pKi,8.05
